These are literature values, as cited in patent US20260382613A1, “METHODS OF TREATING ACUTE LEUKEMIA” (published 2026).

Structures are written as SMILES.

The test system of one data set is MEN1. The conditions noted are these: revumenib, at least 2 cycles; cited from earlier work.
For data set [1] the following is noted: revumenib; cited from earlier work.

Take `CCN(C(=O)c1cc(F)ccc1Oc1cncnc1N1CC2(CCN(C[C@H]3CC[C@H](NS(=O)(=O)CC)CC3)CC2)C1)C(C)C`: the “patients with one or more MEN1 mutations” value in the data set with MEN1 is on record as 39%. Further, the “QT prolongation as treatment-related adverse event” value in data set [1] is given as 53%.
